Measurements as given in BindingDB's records for PubMed 35944850 (Vanderbilt University, 2022).

Sequences of proteins named here, by UniProt entry; tags and fusion partners are left off.
UniProt Q14831, whole entry: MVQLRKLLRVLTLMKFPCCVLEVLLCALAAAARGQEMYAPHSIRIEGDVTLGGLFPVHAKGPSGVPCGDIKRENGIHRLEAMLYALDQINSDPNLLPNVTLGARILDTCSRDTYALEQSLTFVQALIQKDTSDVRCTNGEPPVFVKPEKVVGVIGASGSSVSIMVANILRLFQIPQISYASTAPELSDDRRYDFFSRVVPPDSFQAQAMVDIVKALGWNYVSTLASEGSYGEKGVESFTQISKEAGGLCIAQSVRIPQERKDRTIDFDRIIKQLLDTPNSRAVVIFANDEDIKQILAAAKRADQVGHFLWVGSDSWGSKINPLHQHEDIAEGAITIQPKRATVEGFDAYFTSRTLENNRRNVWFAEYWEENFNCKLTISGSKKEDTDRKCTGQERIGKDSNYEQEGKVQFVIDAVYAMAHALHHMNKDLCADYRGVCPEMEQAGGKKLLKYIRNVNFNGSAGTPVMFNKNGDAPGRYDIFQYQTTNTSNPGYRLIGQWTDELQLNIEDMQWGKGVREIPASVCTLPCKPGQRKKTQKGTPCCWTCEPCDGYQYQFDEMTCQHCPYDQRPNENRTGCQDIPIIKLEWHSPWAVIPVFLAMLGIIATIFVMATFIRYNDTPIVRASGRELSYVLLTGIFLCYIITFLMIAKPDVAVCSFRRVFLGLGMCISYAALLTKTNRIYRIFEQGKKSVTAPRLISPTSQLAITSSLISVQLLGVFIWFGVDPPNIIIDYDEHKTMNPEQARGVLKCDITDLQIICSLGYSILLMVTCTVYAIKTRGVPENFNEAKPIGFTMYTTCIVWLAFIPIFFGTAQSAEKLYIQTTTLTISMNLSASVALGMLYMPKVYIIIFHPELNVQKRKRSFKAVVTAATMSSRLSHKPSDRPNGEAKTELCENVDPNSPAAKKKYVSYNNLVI

Molecular target: Metabotropic glutamate receptor 7 (Homo sapiens, UniProt Q14831)

SMILES: CCCOc1ccc(C(=O)Nc2cc(OC(F)(F)F)ccc2-n2cncn2)cc1OC
- IC50: 1580 nM
